Laboratory results taken from patent publication US5912270A, “Anti-inflammatory compounds” (SmithKline Beecham Corporation, priority 1996, dated 1999).

Tested on: CoA-IT
Assay: Assay (b): microsomal CoA-IT activity assay
Assay type: biochemical, human
Conditions: at concentrations up to 500 μM; U937 microsomes
Description: The following is a method to measure CoA-IT activity and the effects of compounds on CoA-IT activity. The assay is based upon mixing cellular material containing CoA-IT activity with a stable lyso phospholipid such as […] and measuring the production of phospholipid product such as […] occurring in the absence of added CoA or CoA-fatty acids.
Any inflammatory cell that contains high levels of CoA-IT activity can be used, such as neutrophils, macrophages or cell lines such as U937 cells. […] Cells were grown without differentiation (basal state) by any agent, such as dimethyl sulfoxide. As used herein, "inflammatory cells" include, but are not limited to neutrophils, macrophages, monocytes, lymphocytes, eosinophils, basophils, and mast cells.
Microsomes were prepared using standard techniques. In this case, cells were washed with a buffer of 250 mM sucrose, 10 mM Tris, 1 mM EGTA, 1 mM MgCl2, pH 7.4 and ruptured by N2 cavitation (750 psi, 10 minutes). The ruptured cells were centrifuged 1000×g, 5 minutes. The resulting supernatant was centrifuged at 20,000×g,~20 minutes. Microsomes were prepared from this supernatant by centrifugation at 100,000×g, 60 minutes. […]
CoA-IT activity was measured in 1.5 ml centrifuge tubes in a total volume of 100 ul. […] 1-alkyl-2-acyl-GPC, was scraped and quantified by liquid scintillation spectroscopy. […]

For O=C(O)Cc1ccccc1Nc1c(Cl)cccc1Cl [Sodium diclofenac], the “effect on CoA-IT activity” value was “no effect”.
